Data from patent US6821738B2, “Broad spectrum bio-detection of nerve agents, organophosphates, and other chemical warfare agents” (dated 2004).

Protein sequences, listed by entry. Tags and fused reporters are not part of them. Residues count along the entry.
UniProt P22303, 32-614 limits assumed: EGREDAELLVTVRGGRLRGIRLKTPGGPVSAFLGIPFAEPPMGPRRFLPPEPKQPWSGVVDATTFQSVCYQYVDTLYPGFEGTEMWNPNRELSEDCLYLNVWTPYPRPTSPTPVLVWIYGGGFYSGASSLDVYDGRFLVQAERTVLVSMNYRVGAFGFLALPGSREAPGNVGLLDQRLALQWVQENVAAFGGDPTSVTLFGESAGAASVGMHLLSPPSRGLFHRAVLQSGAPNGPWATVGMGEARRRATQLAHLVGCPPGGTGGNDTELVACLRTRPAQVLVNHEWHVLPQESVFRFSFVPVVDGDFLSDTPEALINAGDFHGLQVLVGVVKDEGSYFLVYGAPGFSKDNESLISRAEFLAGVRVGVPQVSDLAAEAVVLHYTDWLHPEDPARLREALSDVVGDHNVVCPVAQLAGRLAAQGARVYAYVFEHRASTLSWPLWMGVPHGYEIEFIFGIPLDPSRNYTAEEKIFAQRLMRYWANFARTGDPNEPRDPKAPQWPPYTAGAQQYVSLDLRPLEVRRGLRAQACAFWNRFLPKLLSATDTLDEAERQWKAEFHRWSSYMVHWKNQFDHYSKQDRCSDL

Tests used:
AChE = AChE (Homo sapiens, UniProt P22303); assay: Inhibition of AChE by TPPS1
TPPS1-AChE complex = TPPS1-AChE complex (Homo sapiens, UniProt P22303); assay: Alteration of the TPPS1-AChE complex spectrum (442 nm region) by added compounds; details: compounds binding at the active site vs elsewhere

| Molecule | inhibition of AChE (AChE) | spectrum of the TPPS1-AChE complex altered in the 442 nm region by addition of compound (TPPS1-AChE complex) |
| --- | --- | --- |
| monosulfonate tetraphenyl porphyrin | effective competitive inhibitor | – |
| CCCCNc1ccc(C(=O)OCCN(C)C)cc1 | – | altered |
| CCN(CC)CCOC(=O)c1ccc(N)cc1 | – | not |
